Test system: ddY mice
Test: Tail suspension test (evaluation of motivation-enhancing effect)
Format: in vivo
Settings: oral, in saline, n=5; 0.2 μmol/kg body weight; tail suspension test 30 minutes after administration
Protocol: Each of the prepared peptides was administered to mice (ddY mice (5-week-old male mice 24 to 28 g in body weight)) by the method shown below. The mice were then subjected to a tail suspension test for the evaluation of a motivation-enhancing effect.
Each peptide was dissolved in saline. The solution was orally administered to mice (n=5) such that each of peptides 3, 4, and 8 was administered in a dose of 0.3 mg/kg body weight and each of peptides 1, 2, 5, 6, and 7 was administered in a dose of 0.2 μmol/kg body weight. Control mice (n=5) were orally administered with only saline. Each of the mice was subjected to a tail suspension test in which the peptide of the present invention was evaluated for its efficacy to enhance motivation.
Thirty minutes after the administration of the peptide, each mouse was suspended with its tail fixed 30 cm above the floor. Subsequently, during a period of 6 minutes from the start of the test (0 minutes), the time (immobility time) during which the mouse remained in a motionless state, observed after the start of escape behavior, was measured, and the measurements were averaged. The motionless state is known as “despair state”. […] This means that materials effective in enhancing motivation in this test may be effective in treating, preventing, or ameliorating mood disorders.
The results shown in FIG. 1 are the values relative to the immobility time of the control group, which is normalized to 100%, with respect to the mice administered with each peptide.

Substance | motivation-enhancing effect
Peptide 5: A peptide consisting of the amino acid sequence represented by SEQ ID NO: 5 (QS); comparison dipeptide | cannot have a sufficient level of motivation-enhancing effect
Peptide 6: A peptide consisting of the amino acid sequence represented by SEQ ID NO: 6 (QK); comparison dipeptide | cannot have a sufficient level of motivation-enhancing effect
Peptide 7: A peptide consisting of the amino acid sequence represented by SEQ ID NO: 7 (SQ); comparison dipeptide | cannot have a sufficient level of motivation-enhancing effect
